Measurements published in patent publication US12208075B2, “Antimicrobial compositions containing free fatty acids” (priority 2009, dated 2025).

Test system: Staphylococcus aureus RN 4220
Test: Comparative microbicidal suspension test, free vs emulsified fatty acids
Format: cell-based

SMILES: CCCCCCCCCCCC(=O)O [Free lauric acid, lauric acid]
- viable count (log number) (0 Seconds at 37° C.): 7.87 log
- viable count (log number) (60 Seconds at 37° C.): 7.35 log
- viable count (log number) (120 Seconds at 37° C.): 7.77 log
- viable count (log number) (180 Seconds at 37° C.): 7.41 log
- viable count (log number) (240 Seconds at 37° C.): 7.98 log
- viable count (log number) (300 Seconds at 37° C.): 7.23 log
- viable count (log number) (360 Seconds at 37° C.): 7.65 log
